Among the data in ChEMBL document CHEMBL3639007, “Cyclohexyl amide derivatives as CRF receptor antagonists” (2014) are IC50 values, retold here.

In one assay the target is T1, Corticotropin-releasing factor receptor 1 (Homo sapiens, UniProt P34998).
T1 sequence (P34998 whole entry): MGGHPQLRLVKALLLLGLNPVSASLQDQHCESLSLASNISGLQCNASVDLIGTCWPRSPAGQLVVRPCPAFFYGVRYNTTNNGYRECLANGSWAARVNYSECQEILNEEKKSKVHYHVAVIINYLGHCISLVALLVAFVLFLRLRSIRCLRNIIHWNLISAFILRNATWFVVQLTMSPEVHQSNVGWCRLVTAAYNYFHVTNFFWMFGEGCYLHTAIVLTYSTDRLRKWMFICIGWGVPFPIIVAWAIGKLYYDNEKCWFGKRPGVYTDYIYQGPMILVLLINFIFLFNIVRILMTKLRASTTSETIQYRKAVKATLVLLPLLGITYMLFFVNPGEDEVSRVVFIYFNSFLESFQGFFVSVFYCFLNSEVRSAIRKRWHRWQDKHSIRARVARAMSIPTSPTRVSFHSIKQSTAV
The assay is described as follows: (§1) Homogeneous Time-Resolved Fluorescence Assay: Chinese hamster ovary (CHO) cells expressing either the human or rat recombinant CRF-1 or human CRF-2alpha (Chen et al, Proc Natl Acad Sci USA 90, 8967-8971, 1993; Liaw et al, Endocrinology 137, 72-77, 1996) are propagated in Dulbecco's modified Eagle medium supplemented with 10% foetal calf serum, non-essential amino acids, 100 U/ml penicillin, 100 mg/l streptomycin and 1 g/l geneticin. CHO cells expressing the rat CRF-2beta receptor (Wu et al, Endocrinology 148, 1675-1687, 2007) are propagated in HAM's-F12 Glutamax supplemented with 10% foetal calf serum, 100 IU/ml penicillin, 100 mg/l streptomycin, 600 ug/ml hygromycin, 10 ug/ml blasticidin and induced with 1 ug/ml of tetracyclin for 24 hours prior to experimentation. For cyclic AMP determinations the Homogeneous Time-Resolved Fluoresce (HTRF) CAMP dynamic 2 kit (Cisbio International, France) was used as per manufacturers' instructions. It counts as cell-based. (Time-resolved FRET reads energy transfer from a long-lived donor to a nearby acceptor.)
As to `O=C(O)Cc1ccc(NC[C@H]2CC[C@@H](NC(=O)c3cc(C(F)(F)F)ccc3Cl)CC2)cc1`, the half-maximal inhibitory concentration (IC50) (in general, the concentration needed to halve the response being measured) is 948 nM.

On to `CCc1nn(C[C@H]2CC[C@H](NC(=O)c3cc(C(F)(F)F)ccc3Cl)CC2)c(C)c1Cl`, for which the concentration for half-maximal inhibition (IC50) came out at 49 nM.

Consider `CCc1cc(C)n(C[C@H]2CC[C@H](NC(=O)c3cc(C(F)(F)F)ccc3Cl)CC2)n1`, for which the IC50 amounted to 13 nM.

For the compound `Cc1ncc(Cl)cc1C(=O)N[C@H]1CC[C@@H](Cn2nc(-c3ccccc3)cc2C)CC1`, the IC50 was found to be 131 nM.

`COc1cc(C)n(C[C@H]2CC[C@H](NC(=O)c3cc(C(F)(F)F)ccc3Cl)CC2)n1`: the IC50 worked out at 126 nM.

Take `O=C(N[C@H]1CC[C@H](Cn2cc3c(n2)CCC3)CC1)c1cc(C(F)(F)F)ccc1Cl`: the IC50 was 147 nM.

Regarding `Cc1cc(C(C)C)n(C[C@H]2CC[C@H](NC(=O)c3cc(Cl)cnc3C)CC2)n1`, the half-inhibitory concentration (IC50) was determined as 40 nM.

On to `Cc1cnn(C[C@H]2CC[C@H](NC(=O)c3cc(C(F)(F)F)ccc3Cl)CC2)c1C`, for which the concentration for half-maximal inhibition (IC50) was found to be 214 nM.

A further assay has as its target T2, Corticotropin-releasing factor receptor 2 (Homo sapiens, UniProt Q13324).
T2 sequence (Q13324 whole entry): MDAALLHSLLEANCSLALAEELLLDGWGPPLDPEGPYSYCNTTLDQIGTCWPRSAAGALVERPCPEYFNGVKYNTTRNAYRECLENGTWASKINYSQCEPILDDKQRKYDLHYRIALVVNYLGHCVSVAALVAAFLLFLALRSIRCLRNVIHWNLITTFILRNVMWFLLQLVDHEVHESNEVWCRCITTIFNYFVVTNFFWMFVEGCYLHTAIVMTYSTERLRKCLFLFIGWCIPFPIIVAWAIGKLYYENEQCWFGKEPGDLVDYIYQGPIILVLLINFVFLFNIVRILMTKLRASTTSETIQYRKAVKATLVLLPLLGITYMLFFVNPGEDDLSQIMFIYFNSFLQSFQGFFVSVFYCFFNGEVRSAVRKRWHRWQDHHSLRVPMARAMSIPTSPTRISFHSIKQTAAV
Described as §1. It counts as cell-based.
Regarding `COc1ccc(-c2c(NC[C@H]3CC[C@H](NC(=O)c4cc(C(F)(F)F)ccc4Cl)CC3)n[nH]c2C)c(Cl)c1`, the concentration for half-maximal inhibition (IC50) came to 727 nM.
